These are literature values, as cited in patent US20210268122A1, “INHIBITION OF S[…] PROTEIN INHIBITORS OF CYSTEINE PROTEASES” (DYVE BIOSCIENCES, INC., priority 2017, published 2021).

The data set deals with cysteine cathepsin. To be noted: intra-peritoneal; mammary and lungs; cited from earlier work.

On to JPM-OEt, for which the bioavailability result is recorded as “poor”.
